Assay results published in ChEMBL document CHEMBL1157664, “Aminopyridinecarboxamide-based inhibitors: Structure-activity relationship” (Bioorg Med Chem, 2010).

The chains behind the UniProt entries cited, without tags or fusion partners. Where a name states a change or a piece, a line headed by the entry shows the natural chain unless it says otherwise.
UniProt O14920: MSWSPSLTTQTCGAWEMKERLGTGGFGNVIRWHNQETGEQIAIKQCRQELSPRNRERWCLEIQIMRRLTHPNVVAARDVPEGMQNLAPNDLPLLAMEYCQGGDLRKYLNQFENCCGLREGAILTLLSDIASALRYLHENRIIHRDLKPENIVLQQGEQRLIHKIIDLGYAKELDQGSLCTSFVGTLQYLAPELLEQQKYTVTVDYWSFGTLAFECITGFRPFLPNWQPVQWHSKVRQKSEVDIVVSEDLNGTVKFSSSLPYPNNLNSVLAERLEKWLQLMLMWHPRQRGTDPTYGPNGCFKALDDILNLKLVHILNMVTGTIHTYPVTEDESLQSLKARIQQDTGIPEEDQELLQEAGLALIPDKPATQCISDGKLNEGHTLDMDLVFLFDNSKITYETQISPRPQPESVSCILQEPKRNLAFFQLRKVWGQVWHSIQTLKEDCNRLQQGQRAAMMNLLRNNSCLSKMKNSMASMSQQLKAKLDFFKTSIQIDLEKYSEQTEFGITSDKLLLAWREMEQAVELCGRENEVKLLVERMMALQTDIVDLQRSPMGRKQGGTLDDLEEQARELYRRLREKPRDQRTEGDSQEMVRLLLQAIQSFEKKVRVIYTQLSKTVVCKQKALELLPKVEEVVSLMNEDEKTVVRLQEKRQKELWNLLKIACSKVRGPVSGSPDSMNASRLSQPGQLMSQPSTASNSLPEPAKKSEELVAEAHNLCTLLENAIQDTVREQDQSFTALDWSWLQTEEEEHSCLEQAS

Columns and labels:
[1] = target: T1, Inhibitor of nuclear factor kappa-B kinase subunit beta (Homo sapiens, UniProt O14920); test: Ratio of compound IC50 to 1-(benzo[d][1,3]dioxol-5-yl)-8-(2-chloronicotinamido)-4,5-dihydro-1H-benzo[g]indazole-3-carboxamide IC50 for human recombinant IKK2
[2] = target: T1, Inhibitor of nuclear factor kappa-B kinase subunit beta; test: Ratio of compound IC50 to 8-(2-chloronicotinamido)-1-(4-fluorophenyl)-4,5-dihydro-1H-benzo[g]indazole-3-carboxamide IC50 for human recombinant IKK2
[3] = target: T1, Inhibitor of nuclear factor kappa-B kinase subunit beta; test: Ratio of compound IC50 to PHA-408 IC50 for human recombinant IKK2

Row | Ratio IC50 [1] | Ratio IC50 [2] | Ratio IC50 [3] | Structure (SMILES)
1 | 10 | 10 | – | CN1CCN(c2ccc(Cl)c(C(=O)Nc3ccc4c(c3)-c3c(c(C(N)=O)nn3-c3ccc5c(c3)OCO5)CC4)n2)CC1
2 | – | – | 4 | CN1CCN(c2cc(C(=O)Nc3ccc4c(c3)-c3c(c(C(N)=O)nn3-c3ccc(F)cc3)CC4)ccn2)CC1
